This is an account of results in ChEMBL document CHEMBL1158608, “Hit-to-lead optimization of disubstituted oxadiazoles and tetrazoles as mGluR5 NAMs” (Bioorg Med Chem Lett, 2010).

Amino acid sequences for entries named in this document (tags omitted).
UniProt P31424, whole entry: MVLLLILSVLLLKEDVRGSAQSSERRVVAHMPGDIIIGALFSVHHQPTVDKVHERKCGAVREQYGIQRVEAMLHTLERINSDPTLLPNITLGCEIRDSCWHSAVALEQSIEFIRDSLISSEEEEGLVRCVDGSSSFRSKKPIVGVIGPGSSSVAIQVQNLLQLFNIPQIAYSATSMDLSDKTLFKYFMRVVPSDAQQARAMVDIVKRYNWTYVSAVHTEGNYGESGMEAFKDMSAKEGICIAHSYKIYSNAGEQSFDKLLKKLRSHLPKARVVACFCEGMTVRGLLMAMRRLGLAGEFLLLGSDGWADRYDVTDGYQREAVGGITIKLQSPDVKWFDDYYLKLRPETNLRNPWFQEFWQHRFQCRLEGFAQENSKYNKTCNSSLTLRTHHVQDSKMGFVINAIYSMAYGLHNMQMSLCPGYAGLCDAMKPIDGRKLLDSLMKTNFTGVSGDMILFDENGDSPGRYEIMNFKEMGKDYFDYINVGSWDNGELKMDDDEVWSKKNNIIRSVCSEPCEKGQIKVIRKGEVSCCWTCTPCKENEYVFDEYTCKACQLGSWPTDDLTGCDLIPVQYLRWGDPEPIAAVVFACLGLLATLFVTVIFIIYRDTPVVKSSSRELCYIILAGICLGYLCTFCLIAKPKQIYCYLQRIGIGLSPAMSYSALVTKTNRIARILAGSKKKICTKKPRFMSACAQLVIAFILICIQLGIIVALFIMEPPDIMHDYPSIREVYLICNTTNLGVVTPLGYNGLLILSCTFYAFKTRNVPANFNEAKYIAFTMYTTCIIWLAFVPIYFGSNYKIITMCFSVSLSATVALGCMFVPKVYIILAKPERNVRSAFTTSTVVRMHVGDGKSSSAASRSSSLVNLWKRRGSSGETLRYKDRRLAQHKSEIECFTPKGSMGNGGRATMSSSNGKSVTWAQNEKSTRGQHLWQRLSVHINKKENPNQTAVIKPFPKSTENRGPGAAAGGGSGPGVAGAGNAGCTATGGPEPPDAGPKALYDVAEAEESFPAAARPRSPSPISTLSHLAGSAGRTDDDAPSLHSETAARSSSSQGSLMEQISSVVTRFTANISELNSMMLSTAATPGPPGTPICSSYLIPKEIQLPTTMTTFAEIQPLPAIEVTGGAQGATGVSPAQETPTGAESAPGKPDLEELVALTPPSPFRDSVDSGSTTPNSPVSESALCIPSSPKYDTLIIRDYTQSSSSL

In general, Ki refers to the equilibrium dissociation constant of an inhibitor or competing ligand from its target. High values mean weaker binding, low ones tighter binding. Usually IC50 stands for the concentration needed to halve the response being measured.

Test [1] concerns the target T1, Metabotropic glutamate receptor 5 (Rattus norvegicus, UniProt P31424). Kind of test: Displacement of [3H]-M-MPEP from mGluR5 in rat cerebrocortical membranes. Format: cell membranes, Membrane. A digest of the protocol: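 Radioligand [3H]-M-MPEP at 2 nM. Nonspecific binding taken with 10 µM M-MPEP. Displacement run in duplicate or triplicate, with curves of at least six concentrations. IC50 was converted to Ki by Cheng-Prusoff, using Kd from a Scatchard plot.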
On the technique in general: Loss of bound radioactivity is the signal in a displacement assay; it reports binding, not function.

The target in test [2] is T1, Metabotropic glutamate receptor 5. Briefly: Allosteric modulation of mGluR5 in E17 rat neuronal cultures assessed as inhibition of (S)-3,5-dihydroxyphenylglycine-induced calcium level. Format: functional. The method, boiled down: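 Primary neocortical cultures from E17 rat embryos, grown at least 5 days, then loaded with the Ca2+ dye fluo-4/AM. Baseline and agonist-evoked fluorescence signals were recorded on a plate reader fluorometer.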

Turning to `O=C(c1ccc(Br)o1)N1CCCCC1c1nnn(-c2cccc(Cl)c2)n1` (racemic), in test [1], affinity was put at a Ki of 49 nM. Also, the IC50 in test [2] is 214 nM.
